We go through 3 compounds from US9029377B2, “Platelet-activating factor receptor antagonists” (Merck Sharp & Dohme Corp., priority 2009, dated 2015).

Protein sequences, listed by entry. Tags and fused reporters are not part of them. Lines headed by an entry give the natural chain unless they say otherwise; changes in a name come on top.
UniProt P25105: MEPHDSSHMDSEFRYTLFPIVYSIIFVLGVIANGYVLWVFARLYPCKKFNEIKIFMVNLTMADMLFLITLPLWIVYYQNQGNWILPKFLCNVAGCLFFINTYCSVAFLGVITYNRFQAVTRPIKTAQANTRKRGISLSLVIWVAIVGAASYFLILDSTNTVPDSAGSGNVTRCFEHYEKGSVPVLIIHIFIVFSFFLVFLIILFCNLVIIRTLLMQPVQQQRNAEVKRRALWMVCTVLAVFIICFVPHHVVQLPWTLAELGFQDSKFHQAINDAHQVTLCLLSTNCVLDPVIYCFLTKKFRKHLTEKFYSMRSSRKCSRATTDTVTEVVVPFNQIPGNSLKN

This experiment concerns the target PAFR (Homo sapiens, UniProt P25105). The experiment is described as follows: PAF Binding Assay (PAFR binding).

As a reminder, the IC50 is the point on the concentration scale where inhibition reaches its midpoint. Read a high IC50 as a need for much substance. “3-ethyl-N-[(1S,3R)-3-(4H-1,2,4-triazol-4-yl)cyclohexyl]trifluorethoxy)biphenyl-4-sulfonamide [Compound 2Aah]” gave an IC50 of 2.1 nM.

For `Cc1ccc2c(F)ccc(-c3cc(C(F)(F)F)cc(S(=O)(=O)N[C@H]4CCC[C@@H](n5cnnc5)C4)c3)c2n1` [Compound 3Aap, 3-(5-fluoro-2-methylquinolin-8-yl)-N-[(1S,3R)-3-(4H-1,2,4-triazol-4-yl)cyclohexyl]-5-(trifluoromethyl)benzenesulfonamide], the IC50 is 2.1 nM.

`O=S(=O)(N[C@H]1CCC[C@@H](n2cnnc2)C1)c1cc(-c2cccc(OC(F)(F)F)c2)cc(C(F)(F)F)c1` [Compound 3Au, N-[(1S,3R)-3-(4H-1,2,4-triazol-4-yl)cyclohexyl]-3′-(trifluoromethoxy)-5-(trifluoromethyl)biphenyl-3-sulfonamide] registered a 50% inhibitory concentration (IC50) of 2.1 nM.
